AlphaSeq binding of Ab-95 light chain variants to a spike HR2 peptide

All variants were tested on one target, the spike HR2 peptide PDVDLGDISGINAS (SARS-CoV-2).

Parent scFv Ab-95: VH joined to VL by three GGGGS repeats. Changes lie in the light chain CDRs alone.
VH: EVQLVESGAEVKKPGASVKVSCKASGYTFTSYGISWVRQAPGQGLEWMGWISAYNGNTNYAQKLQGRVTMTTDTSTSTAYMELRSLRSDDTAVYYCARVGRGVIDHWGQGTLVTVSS
VL: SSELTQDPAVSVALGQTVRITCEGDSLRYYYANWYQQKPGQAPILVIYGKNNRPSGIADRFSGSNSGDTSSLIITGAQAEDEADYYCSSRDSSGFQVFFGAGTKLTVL

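Phage display of a naive human antibody library on the peptide gave the parent. AAYL52 was designed without a model: most single CDR substitutions and a random sample of double and triple ones. In AlphaSeq, yeast of one mating type display the scFv and yeast of the other type display the target. Mating (16 h, 30 °C) was followed by selection of diploids and sequencing of their barcodes. Read counts were normalised to the haploid input and turned into Kd by a linear fit to BCL2-family pairs of known affinity, for each replicate. Each pool was mated in three replicate cultures.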

Substitutions are numbered in sequence along the VL above, starting at 1 (not Kabat).
The read-out is the apparent dissociation constant on a log10 scale (nM): the lower, the stronger.
Averages over replicates are reported, and they cover detected replicates only.
A pair that was not seen in that replicate is written "nd"; this usually means weak binding, but a binder can also be missed.

| changes | log10 Kd (nM) by replicate | mean log10 Kd (nM) |
|---|---|---|
| G24S/S89I/G94V | nd 4.31 2.85 | 3.58 |
| G49T/S89H/Q96M | nd nd nd | nd |
| D25C/P54C/S92G | nd 4.31 nd | 4.31 |
| G24A/N33L/G49M | nd nd nd | nd |
| R53Q/S55L/R90L | nd 4.52 nd | 4.52 |
| Y30L/P54A/Q96S | 2.55 2.51 2.20 | 2.42 |
| S26A/N33C/V97Q | nd nd nd | nd |
| E23N/S26E/A32T | 3.50 4.60 2.66 | 3.58 |
| S88W/S92H/S93H | 3.15 nd nd | 3.15 |
| D25L/S89T | 3.43 3.40 2.76 | 3.20 |
| K50G/S89I/D91K | 2.68 2.52 1.77 | 2.32 |
| S92K/S93K/V97S | 3.39 3.52 nd | 3.46 |
| N51Q/S93Y/G94Y | 3.80 3.79 nd | 3.79 |
| Y31K/K50N/S92C | 2.18 1.99 1.66 | 1.94 |
| Y31N/K50G/R90I | nd nd nd | nd |
| G49I/R53E/P54L | nd 4.97 nd | 4.97 |
| Y30V/P54D/Q96L | 2.34 2.31 2.19 | 2.28 |
| S88W/S89A/S92V | nd nd nd | nd |
| Y29C/K50R/S55G | nd nd nd | nd |
| S93H/Q96S | 2.43 2.51 1.81 | 2.25 |
| D25M/R53K/G94K | nd 3.81 nd | 3.81 |
| G24R/D25V/S89Y | nd nd nd | nd |
| S26A/D91G/Q96F | 3.15 3.52 3.02 | 3.23 |
| R28H/R90T/V97R | nd nd nd | nd |
| Y29F/K50E/S93W | 3.00 3.00 2.04 | 2.68 |
| E23F/Y29A/N51C | 3.88 3.94 4.35 | 4.06 |
| S55M/S88T | 2.49 2.52 2.70 | 2.57 |
| R28K/Y30V/R90H | 2.97 3.51 3.88 | 3.45 |
| N33V/S92H/Q96M | nd nd nd | nd |
| S55F/D91L/F95R | 2.69 2.44 3.58 | 2.91 |
| Y30F/K50A/S55N | 2.60 2.44 3.22 | 2.76 |
| Y29E/P54G/S93R | 3.60 2.89 3.07 | 3.18 |
| R28M/Y29K/P54N | 2.61 nd 2.83 | 2.72 |
| G24Y/N33S/P54I | nd 4.68 nd | 4.68 |
| R53A/S88Q/S89Q | nd nd nd | nd |
| A32R/R53P/F98K | 4.31 nd 3.95 | 4.13 |
| E23F/G49P/R53W | nd nd 4.06 | 4.06 |
| R28Q/P54N/G94T | 4.01 3.16 4.54 | 3.90 |
| R28A/Y31E | 1.42 1.38 1.01 | 1.27 |
| E23L/A32R/V97F | 3.43 4.78 4.37 | 4.20 |
| E23Q/Y30A/D91W | 3.11 2.04 2.65 | 2.60 |
| E23L/S92F/Q96H | nd 3.15 2.71 | 2.93 |
| E23I/N52C/S89A | 2.77 3.24 2.70 | 2.90 |
| D91R/G94V/F98Q | 3.66 3.56 4.19 | 3.80 |
| E23N/S88W/G94N | 2.38 2.16 2.56 | 2.36 |
| E23G/R28A/R53S | 2.82 3.58 4.04 | 3.48 |
| E23T/A32M/R90D | 3.65 3.56 3.48 | 3.56 |
| E23W/G49I | 3.86 4.43 nd | 4.14 |
| Y31S/A32D/R53F | 3.41 nd nd | 3.41 |
| N52L/R90C | 4.14 nd 3.71 | 3.93 |

The opening 7 entries, copied out:

changes,log10 Kd (nM) by replicate,mean log10 Kd (nM)
G24S/S89I/G94V,nd 4.31 2.85,3.58
G49T/S89H/Q96M,nd nd nd,nd
D25C/P54C/S92G,nd 4.31 nd,4.31
G24A/N33L/G49M,nd nd nd,nd
R53Q/S55L/R90L,nd 4.52 nd,4.52
Y30L/P54A/Q96S,2.55 2.51 2.20,2.42
S26A/N33C/V97Q,nd nd nd,nd

In this assay the parent's reference entry averaged 2.31; its copy inside this library read 2.25.
As a blank, each scFv also met three strains without target: over library AAYL52, 28% of these pairings were detected, typically at 3.91 and seldom below 2.90.

The measurements come from Engelhart et al. 2022 (doi:10.1038/s41597-022-01779-4) through the FLAb antibody collection.